From US5298508A, “Irreversible inhibitors of adenosine receptors” (priority 1992, dated 1994)

Protein sequences, listed by entry. Tags and fused reporters are not part of them.
UniProt P25099, whole entry: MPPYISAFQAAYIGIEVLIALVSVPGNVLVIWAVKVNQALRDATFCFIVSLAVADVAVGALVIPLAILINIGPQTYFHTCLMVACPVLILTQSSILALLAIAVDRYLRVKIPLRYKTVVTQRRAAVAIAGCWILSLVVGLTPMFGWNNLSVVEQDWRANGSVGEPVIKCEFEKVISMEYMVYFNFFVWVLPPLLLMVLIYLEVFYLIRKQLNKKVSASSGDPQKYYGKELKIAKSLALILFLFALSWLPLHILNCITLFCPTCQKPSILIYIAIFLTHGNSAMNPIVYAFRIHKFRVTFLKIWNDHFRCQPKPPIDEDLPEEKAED

Target: T1, A1 adenosine receptors (Rattus norvegicus, UniProt P25099)
T1 construct: A1 adenosine receptors in rat cerebral cortex membranes; from tissue; host or cells: rat cerebral cortex membranes
Test: inhibition of binding of [3H]N6-phenylisopropyladenosine ([3H]PIA) to A1 adenosine receptors in rat cerebral cortex membranes
Settings: Table II, against [3H]PIA, read-out: Ki at central A1 receptors, rat
Description: Ukena et al., FEBS Letters 209;122, 1986.
For the biochemical assays, stock solutions of xanthines in the millimolar concentration range in dimethylsulfoxide were prepared and stored frozen. The solutions were warmed to 50° C. prior to dilution in aqueous medium. […] Acad. Sci. USA, 83:4089, 1986. Inhibition of binding by a range of concentrations of a xanthine or adenosine derivative was assessed in triplicate in at least three separate experiments.

SMILES: NCCNC(=O)Cc1ccc(NC(=O)Cc2ccc(Nc3ncnc4c3ncn4[C@@H]3O[C@H](CO)[C@@H](O)[C@H]3O)cc2)cc1 [Compound 26a, reference compound]
- Ki: 1.3 ± 0.3 nM
